Patent US8722903B2, “Indazole derivatives for the treatment of HSP9O-induced diseases” (Merck Patent GmbH, priority 2006, dated 2014)

These molecules were tested against T1, Recombinant human HSP90α (Homo sapiens, UniProt P07900) (assay: Radioligand filter binding test: competitive inhibition of [3H]17AAG binding to HSP90). Conditions: [3H]17AAG 0.08 μM, HSP90 1.5 μg/assay, 22° C., 30 min.
T1 construct: host or cells: E. coli
Procedure: In the specific case, a radioligand filter binding test is used. The radioligand used here is tritium-labelled 17-allylaminogeldanamycin, [3H]17AAG, This filter binding test allows a targeted search for inhibitors which interfere with the ATP binding site.
Recombinant human HSP90α (E. coli expressed, 95% purity);
HEPES filter buffer (50 mM HEPES, pH 7.0, 5 mM MgCl2, BSA 0.01%) Multiscreen FB (1 μm) filter plate (Millipore, MAFBNOB 50).
The 96-well microtitre filter plates are firstly irrigated and coated with 0.1% of polyethylenimine.
The test is carried out under the following conditions:
Reaction temperature 22° C.
Reaction time: 30 min., shaking at 800 rpm
50 mM HEPES HCl, pH 7.0, 5 mM MgCl2, 0.01% (w/v) of BSA
At the end of the reaction, the supernatant in the filter plate is removed by suction with the aid of a vacuum manifold (Multiscreen Separation System, Millipore), and the filter is washed twice.
The filter plates are then measured in a beta counter (Microbeta, Wallac) with scintillator (Microscint 20, Packard).
“% of control” is determined from the “counts per minutes” values, and the IC-50 value of a compound is calculated therefrom.

Row | Structure (SMILES) | IC50
1 | COc1ccc(N(C)C(=O)c2cc3c(Cc4cccc(C)c4)n[nH]c3cc2O)cc1 [Compound A130, 5-[N-(4-Methoxyphenyl)-N-methylaminocarbonyl]-3-(3-methylbenzyl)-6-hydroxy-1H-indazole] | 10 to 1000 nM
2 | COc1ccc(N(C)C(=O)c2cc3c(Cc4cccc(C)c4)n[nH]c3cc2O)cc1Cl [Compound A147, 5-[N-(3-Chloro-4-methoxyphenyl)-N-methylaminocarbonyl]-3-(3-methylbenzyl)-6-hydroxy-1H-indazole] | 10 to 1000 nM
3 | CC(=O)c1ccc(N(C)C(=O)c2cc3c(Cc4cccc(C)c4)n[nH]c3cc2O)cc1 [Compound A148, 5-[N-(4-Acetylphenyl)-N-methylaminocarbonyl]-3-(3-methylbenzyl)-6-hydroxy-1H-indazole] | 10 to 1000 nM
4 | Cc1cccc(Cc2n[nH]c3cc(O)c(C(=O)N(C)c4ccc5c(c4)OCCO5)cc23)c1 [Compound A143, 5-[N-(2,3-Dihydrobenzo-1,4-dioxin-6-yl)-N-methylaminocarbonyl]-3-(3-methylbenzyl)-6-hydroxy-1H-indazole] | 10 to 1000 nM
5 | Cc1cccc(Cc2n[nH]c3cc(O)c(C(=O)N(C)c4ccc(Br)cc4)cc23)c1 [Compound A192, 5-[N-(4-Bromophenyl)-N-methylaminocarbonyl]-3-(3-methylbenzyl)-6-hydroxy-1H-indazole] | 10 to 1000 nM
6 | Cc1cccc(Cc2n[nH]c3cc(O)c(C(=O)N(C)c4ccc(CNS(C)(=O)=O)cc4)cc23)c1 [Compound A134, 5-[N-(4-Methylsulfonylaminomethylphenyl)-N-methylaminocarbonyl]-3-(3-methylbenzyl)-6-hydroxy-1H-indazole] | 10 to 1000 nM

The next lines start with the values.

Row | IC50 | Structure (SMILES)
7 | 10 to 1000 nM | CN(C(=O)c1cc2c(CC3CCCC3)n[nH]c2cc1O)c1ccc(N2CCOCC2)cc1 [Compound A262, 5-[N-(4-Morpholin-4-ylphenyl)-N-methylaminocarbonyl]-3-cyclopentylmethyl-6-hydroxy-1H-indazole]
8 | 10 to 1000 nM | CCCc1n[nH]c2cc(O)c(C(=O)N(C)c3ccc(N4CCOCC4)cc3)cc12 [Compound A176, 5-[N-(4-Morpholin-4-ylphenyl)-N-methylaminocarbonyl]-3-propyl-6-hydroxy-1H-indazole]
9 | 10 to 1000 nM | CCCCc1n[nH]c2cc(O)c(C(=O)N(C)c3ccc(N4CCOCC4)cc3)cc12 [Compound A173, 5-[N-(4-Morpholin-4-ylphenyl)-N-methylaminocarbonyl]-3-butyl-6-hydroxy-1H-indazole]
